Assay results reported in US8829000B2, “Substituted imidazo[1,5-A]quinoxalines as phosphodiesterase 9 inhibitors” (ASKA Pharmaceutical Co., Ltd., priority 2006, dated 2014).

System: partial urethra obstruction model in guinea pigs
Experiment: Dysuria pathological model: cystometry in partial urethra obstruction model
Format: in vivo, Hartley female guinea pigs
Settings: guinea pig; for Frequency of occurrence of uninhibited contraction, before administration: baseline
Description: Three-four weeks old Hartley female guinea pigs (Japan SLC, Inc.) were given celiotomy under anesthesia with pentobarbital (30 mg/kg i.p.) and in their urethra to the peripheral side by 1-2 mm from the bladder neck, each a polyethylene tube of […] and 2.0 mm in inner diameter was placed.
The model was catheterized under anesthesia with urethane (1 g/kg i.p.) at the apex of urinary bladder and right jugular vein for cystometrography and intravenous administration, respectively. The other end of the bladder catheter was connected to a pressure transducer and infusion pump via a three way stop-cock, and physiological saline was continuously infused into the bladder through the infusion pump at a rate of 0.4 mL/min. to induce micturition reflex. Immediately after the micturition reflex was induced, infusion of physiological saline into the bladder was stopped. The intravesical pressure at the time the micturition reflex was induced was measured with the pressure transducer, and the obtained cystometrogram was recorded with pen recorder. The urine voided was collected with disposable type weighing dish and its weight was measured. Further the physiological saline remained in the bladder was sucked with syringe via the bladder catheter and the residual urine volume was measured. The operations of suspending the infusion of physiological saline upon induction of micturition reflex, and about 1 minute thereafter resuming the infusion of physiological saline to induce micturition reflex were repeated plural times (generally 4 times) to stabilize the micturition reflex.
After stabilizing the micturition reflex, a compound solution (prepared by dissolving the compound or methanesulfonic acid salt thereof in DMSO and diluting it with physiological saline or distilled water) or physiological saline was administered into the vein at a volume of 10 mL/kg over 4 minutes, and simultaneously the above-described micturition reflex operations were repeated until 30 minutes passed after initiation of the administration, while measuring the intravesical pressure and the volumes of micturition and residual urine. Also the frequency of uninhibited contraction occurrence during the above-described operations was recorded.

SMILES: CC(C)c1n[nH]c2c(=O)[nH]c(Cc3cccc(Cl)c3)nc12 [Referential Example 1, reference compound]
- Frequency of occurrence of uninhibited contraction, after administration (0.1 mg/kg i.v.): 0.91 times/min
- Frequency of occurrence of uninhibited contraction, after administration (1 mg/kg i.v.): 1.03 times/min
- Frequency of occurrence of uninhibited contraction, quantitative change (1 mg/kg i.v.): −0.33 times/min
- Frequency of occurrence of uninhibited contraction, after administration (3 mg/kg i.v.): 1.09 times/min
- Frequency of occurrence of uninhibited contraction, before administration (dose group 0.1 mg/kg i.v.): 1.36 times/min
- Frequency of occurrence of uninhibited contraction, before administration (dose group 1 mg/kg i.v.): 1.36 times/min
- Frequency of occurrence of uninhibited contraction, before administration (dose group 3 mg/kg i.v.): 1.60 times/min
